The test concerns the target T1, human cathepsin S (CatS) (Homo sapiens, UniProt P25774).
T1 construct: made in house; host or cells: baculovirus system (insect cells)
The test is described as follows: Recombinant human cathepsin S (CatS) fluorogenic substrate inhibition assay. The test is classed as biochemical. The method, then: Recombinant human cathepsin S (CatS) was expressed in the baculovirus system and purified in one step with a thiopropyl-sepharose column. […] The assay is run in 150 mM sodium acetate pH 5.0 containing 1.5 mM DTT and 150 mM NaCl. […] Measurements are taken every min for 20 min. The rate is calculated from the slope of the increase in fluorescence and the percent inhibition is calculated from this.

Amino acid sequences for entries named in this document (tags omitted). Residues count along the entry.
UniProt P25774, 115-331: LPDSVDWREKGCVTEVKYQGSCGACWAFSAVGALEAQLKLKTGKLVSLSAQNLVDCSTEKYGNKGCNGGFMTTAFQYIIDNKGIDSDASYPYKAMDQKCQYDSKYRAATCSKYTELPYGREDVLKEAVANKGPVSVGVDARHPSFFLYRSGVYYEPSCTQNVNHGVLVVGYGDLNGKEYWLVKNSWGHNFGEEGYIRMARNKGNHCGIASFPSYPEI

[1] abbreviates: recombinant human CatS, 10 μM Z-Valine-Valine-Arginine-AMC, pH 5.0, average of results obtained, read-out: CatS IC50.

These results are taken from US20080269241A1, “BICYCLIC AMINOPROPYL TETRAHYDRO-PYRAZOLO-PYRIDINE MODULATORS OF CATHEPSIN S” (priority 2007, published 2008).

Read-outs that look alike come from different tables or passages of the source.

Consider `CS(=O)(=O)N1CCc2c(c(-c3ccc(C(F)(F)F)c(CNC(=O)Oc4ccccc4)c3)nn2CC(O)CN2CCC(N3CCCC3=O)CC2)C1` (stereo not shown) [Example 115, [5-(1-{2-Hydroxy-3-[4-(2-oxo-pyrrolidin-1-yl)-piperidin-1-yl]-propyl}-5-methanesulfonyl-4,5,6,7-tetrahydro-1H-pyrazolo[4,3-c]pyridin-3-yl)-2-trifluoromethyl-benzyl]-carbamic acid phenyl ester], for which, under setting [1], the half-maximal inhibitory concentration (IC50) (in general, the concentration that inhibits the measured activity by half) came out at 120 nM.
As to `CS(=O)(=O)N1CCc2c(c(-c3ccc(C(F)(F)F)c(CNC(=O)c4c[nH]c5ccccc45)c3)nn2CC(O)CN2CCC(N3CCCC3=O)CC2)C1` (stereo not shown) [Example 117, 1H-Indole-3-carboxylic acid 5-(1-{2-hydroxy-3-[4-(2-oxo-pyrrolidin-1-yl)-piperidin-1-yl]-propyl}-5-methanesulfonyl-4,5,6,7-tetrahydro-1H-pyrazolo[4,3-c]pyridin-3-yl)-2-trifluoromethyl-benzylamide], the IC50 is 130 nM.
As for `CC(C)(C)CC(=O)NCc1cc(-c2nn(CCCN3CCC(N4CCCC4=O)CC3)c3c2CN(S(C)(=O)=O)CC3)ccc1C(F)(F)F` [Example 118, N-[5-(5-Methanesulfonyl-1-{3-[4-(2-oxo-pyrrolidin-1-yl)-piperidin-1-yl]-propyl}-4,5,6,7-tetrahydro-1H-pyrazolo[4,3-c]pyridin-3-yl)-2-trifluoromethyl-benzyl]-3,3-dimethyl-butyramide], under setting [1], the half-maximal inhibitory concentration (IC50) was 130 nM.
As for `CN(C)CC(=O)NCc1cc(-c2nn(CC(O)CN3CCC(n4c(=O)n(C)c5ccc(N(C)C)nc54)CC3)c3c2CN(S(C)(=O)=O)CC3)ccc1C(F)(F)F` (stereo not shown) [Example 146, 2-Dimethylamino-N-[5-(1-{3-[4-(5-Dimethylamino-1-methyl-2-oxo-1,2-dihydro-imidazo[4,5-b]pyridin-3-yl)-piperidin-1-yl]-2-hydroxy-propyl}-5-methanesulfonyl-4,5,6,7-tetrahydro-1H-pyrazolo[4,3-c]pyridin-3-yl)-2-trifluoromethyl-benzyl]-acetamide], the IC50 under setting [1] is 130 nM.
